The values below come from ChEMBL document CHEMBL2146442, “High-affinity and selective dopamine D₃ receptor full agonists” (Bioorg Med Chem Lett, 2012).

The nature of experiment [1]: Selectivity ratio of dopamine D1 like receptor to dopamine D3 receptor.
The nature of experiment [2]: Selectivity ratio of dopamine D2 receptor to dopamine D3 receptor.

Bounds are passed on as bounds.

In the case of `Cc1ncoc1-c1nnc(SCCCN2CC3CC3(c3ccc(C(F)(F)F)cc3F)C2)n1C` (configuration not stated), the figures for the Selectivity ratio in experiment [1] and in experiment [2] were more than 1000 and 100, respectively.
